Earlier results, collected in patent publication US20100111867A1, “CARBORANE-PHOSPHONIUM COMPOUNDS AND THEIR USE IN BORON NEUTRON CAPTURE THERAPY AND IMAGING” (THE UNIVERSITY OF SYDNEY, priority 2007, published 2010).

System: canine brain tumour
Details: 11C-labelled, PET; cited from earlier work

## triphenylmethylphosphonium (TPMP) iodide [TPMP iodide]
  time retained in the tumour: ca. 95 min
